The data set can be described thus: LD50 determination / acute oral toxicity. Set-up: species or system mice. The note with it: both sexes, mouse, in vivo, 20 g/kg, orally. As to the method: LD50 determination: For each dose, 20 mice of either sex, weighing 18-20 g were used to determined the LD50 according to the method of Litchfield & Wilcoxon, J. Pharmacol. Exp. Ther. 96:99-113 (1949). Animals were housed in an animal room at 25° C. and 70% relative humidity. The light cycle was set for 12 h light and 12 h darkness. CK-17 was grounded with Tween 80 and then suspended in 1% CMC (carboxymethyl cellulose).

For orientation: LD50 means the dose expected to kill half of the subjects tested. The low end stands for a more toxic substance, the high end for a less toxic substance. Take `CC1(Br)CSC(=Nc2ccccc2)N(c2ccccc2)C1=O` (stereo not shown) [CK-17, 5-bromo-5-methyl-3-phenyl-2-phenylimino-1,3-thiazinan-4-one]: the LD50 at 7 d is ≥ 20000 mg/kg.
